# Laboratory results as given in paper PMC11150675, “Simultaneous determination of multiple components in rat plasma by UPLC-MS/MS for pharmacokinetic studies after oral administration of Pogostemon cablin extract” (Frontiers in Pharmacology, 2024).
# Test: PK study in rats after single oral administration of Pogostemon cablin (PC) extract, plasma analysed by UPLC-MS/MS
# Conditions: rat plasma
# [1] = PC extract 4.0 g/kg single oral dose, n = 6
substance,measurement,setting,value
β-rhamnocitrin,AUC (0-tn),[1],0.1119 ± 0.0377 µg·h/mL
same,Tmax,[1],30 ± 18 min
same,shape of plasma concentration-time curve,"PC extract oral, Figure 2",double-peak phenomenon
